The chains behind the UniProt entries cited, without tags or fusion partners. Where a name states a change or a piece, a line headed by the entry shows the natural chain unless it says otherwise.
UniProt P30874: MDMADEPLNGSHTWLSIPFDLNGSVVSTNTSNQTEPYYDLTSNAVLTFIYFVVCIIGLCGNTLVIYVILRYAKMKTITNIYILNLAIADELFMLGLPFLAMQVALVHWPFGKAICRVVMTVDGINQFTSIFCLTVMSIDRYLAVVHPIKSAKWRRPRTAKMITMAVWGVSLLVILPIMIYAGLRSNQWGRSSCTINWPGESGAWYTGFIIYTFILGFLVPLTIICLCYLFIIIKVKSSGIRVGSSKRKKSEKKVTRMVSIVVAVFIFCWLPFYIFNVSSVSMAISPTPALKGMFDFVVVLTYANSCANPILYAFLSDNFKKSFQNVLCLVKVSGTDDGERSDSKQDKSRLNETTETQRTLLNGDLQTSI

According to article PMC7570871, “Evaluation of a New ^177Lu-Labeled Somatostatin Analog for the Treatment of Tumors Expressing Somatostatin Receptor Subtypes 2 and 5” (Molecules, 2020):

Molecular target: T1, human SST2 (Homo sapiens, UniProt P30874)
T1 construct: expressed in transfected cells; host or cells: HEK cells (HEK-SST2), stably transfected
Assay: Competition binding assay with 125I-SS-14 on membranes of HEK-SST2 cells
Conditions: 125I-SS-14 radioligand
Method: Human Embryonic Kidney (HEK) cells were stably transfected with plasmids encoding the human SST2 and SST5 (HEK-SST2 and HEK-SST5) and cultivated as previously described. […] Nontransfected HEK cells were used as negative control.
Binding assays were performed as described previously.

- IC50: 0.35 nM
Compound: CC(C)[C@@H]1NC(=O)[C@H](CCCCN)NC(=O)[C@@H](Cc2c[nH]c3ccccc23)NC(=O)[C@H](Cc2ccc(O)c(I)c2)NC(=O)[C@@H](NC(=O)[C@@H](Cc2ccc(N)c(I)c2)NC(=O)CN2CCN(CC(=O)O)CCN(CC(=O)O)CCN(CC(=O)O)CC2)CSSC[C@@H](C(=O)N[C@H](C(N)=O)[C@@H](C)O)NC1=O [^natLu-DOTA-ST8950, metal not drawn]
